The values that follow are results of earlier work, collected in patent US20240228623A1.

Chains of the proteins cited; added tags and fusions are not shown. Residues count along the entry.
UniProt P55899, 24-297 limits assumed: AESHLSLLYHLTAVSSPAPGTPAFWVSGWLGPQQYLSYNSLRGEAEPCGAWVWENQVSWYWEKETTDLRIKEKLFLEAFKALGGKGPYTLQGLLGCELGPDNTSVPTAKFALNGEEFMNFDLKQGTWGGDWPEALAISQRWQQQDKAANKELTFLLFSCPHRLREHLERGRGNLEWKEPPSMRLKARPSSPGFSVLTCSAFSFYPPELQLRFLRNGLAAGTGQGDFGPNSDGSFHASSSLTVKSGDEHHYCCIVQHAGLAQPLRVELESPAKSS
UniProt P61769, 21-119 partner limits assumed: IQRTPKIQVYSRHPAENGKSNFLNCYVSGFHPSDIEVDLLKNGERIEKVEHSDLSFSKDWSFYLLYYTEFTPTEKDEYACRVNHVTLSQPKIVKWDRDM

The structures appear in SMILES notation.

In the data set the target is FcRn (Homo sapiens, UniProt P55899). The note with it: FcRn competition assay, small molecules.

A word on the IC50: it is the concentration needed to halve the response being measured. In the case of `N#CC(C(=O)NCCc1ccc(C(N)=O)cc1)c1nc2ccccc2nc1N1CCCCCC1` (stereo not shown), the IC50 is more than 500 µM.
